## AlphaSeq binding of Ab-91 heavy chain variants to a spike HR2 peptide

Target peptide (SARS-CoV-2 spike, HR2 region): PDVDLGDISGINAS

Each scFv is VL, a 15-residue (Gly4Ser)3 linker, VH, as in the parent Ab-91, and differs from it in the CDRs of the heavy chain only.
VL: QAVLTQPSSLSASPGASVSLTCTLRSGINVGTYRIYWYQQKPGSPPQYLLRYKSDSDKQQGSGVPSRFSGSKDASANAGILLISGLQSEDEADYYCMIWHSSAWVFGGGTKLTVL
VH: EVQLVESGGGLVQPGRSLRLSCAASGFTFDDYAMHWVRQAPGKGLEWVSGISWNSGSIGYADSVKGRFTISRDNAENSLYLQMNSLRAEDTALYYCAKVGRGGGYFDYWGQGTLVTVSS

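Library AAYL51 holds single substitutions and randomly drawn double and triple substitutions in the CDRs. Affinity was read by AlphaSeq, a pooled yeast mating assay with surface-displayed partners. Binding brings cells together so that they mate, and sequencing counts the barcode pairs among the diploids. Each replicate has its own calibration line, from reference interactions of the BCL2 family. Mating was done three times.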

Each variant is given by its three heavy chain CDRs, as the data file delimits them; those of the parent are GFTFDDYAMH, GISWNSGSIGYADSVK, VGRGGGYFDY. Every variant below is changed at I51 of the VH (sequential numbering). Each Kd is an estimate from the mating assay, the geometric mean of the replicates in which the pair was seen; lower is stronger. "nd" means that the variant was in the library but no mating with the target was seen in any replicate; the authors take this as a sign of poor binding, and no number exists. Background: pairings of library AAYL51 with three empty control strains gave a value in 21% of cases (median 34 µM, 5th percentile 1.8 µM). Values in that range, when seen in few replicates, are hard to tell from nonspecific mating.

CDR-H1,CDR-H2,CDR-H3,Kd (apparent),detected
GFTFDDYADH,GLSWNSGSIGYADWVK,VGRGGGYFDY,nd,0 of 3
GFTFDNYAMH,GHSWNSGSIGYADSVK,VGRGGGYFDY,20 µM,2 of 3
GFTFDDKAMH,GWSWNSGSEGYADSVK,VGRGGGYFDY,nd,0 of 3
GFLFDDYAMH,GSSWNSGSIGPADSVK,VGRGGGYFDY,37 µM,2 of 3
GFTFDDYAMH,GPSWNSGSIGYADSVK,VGRGGPYFDY,120 µM,1 of 3
GFTGDDYAMH,GNSWNSGSIGYADSVK,VGRGGNYFDY,26 µM,1 of 3
GFTFDDYAMH,GFSWNSESIGYADSVK,VGRGGGYFDY,150 µM,2 of 3
QFTFDDYAMH,GKSWNSGSIGYADDVK,VGRGGGYFDY,nd,0 of 3
GFTFDDLAMH,GVSWNSGSIGYADMVK,VGRGGGYFDY,nd,0 of 3
GFTFDDYAMH,LWSWNGGSIGYADSVK,VGRGGGYFDY,nd,0 of 3
GFTFDDYAMR,GWSWNSGSIGQADSVK,VGRGGGYFDY,12 µM,1 of 3
GFTFDDIAMH,GKSWNSGSIGYADSVK,VGRGGGYFDY,nd,0 of 3
GFTFDDYAMH,GVSWFSRSIGYADSVK,VGRGGGYFDY,44 µM,1 of 3
GFTFDDYAMH,GSSWNSGDIGYADSFK,VGRGGGYFDY,190 µM,2 of 3
GFTFDDYAMH,GQIWNSGSIGYADSVK,VGRGCGYFDY,57 µM,2 of 3
GFTFDDYAMH,GNSWNSGSIGYADSVK,VGRSGGYFDY,120 µM,1 of 3
GFTFDDYAMH,QSSWNSGSIGYADSVK,VGRSGGYFDY,170 µM,2 of 3
GFTFDDYANH,GESWNSGSIGYADSVK,VGRGGGYFDY,nd,0 of 3
GFLFDDYAMH,GHSWNSGSIGYADSVK,VGWGGGYFDY,nd,0 of 3
GFTFMDYAIH,GSSWNSGSIGYADSVK,VGRGGGYFDY,nd,0 of 3
GFTFDDVAMH,GKSWNSGSIGYADSVK,VGRGGGYFDY,17 µM,1 of 3
GFTFDDYAMH,GTSWNSGSIGYADSVK,VGRRGKYFDY,nd,0 of 3
GFTFDDYAMH,GQSWNSGSQGYADSVK,VGLGGGYFDY,3.7 µM,1 of 3
GFTFDDYAMH,GESWNFGSIGYADSVK,VGRGGGYFDY,69 µM,3 of 3
CFTFDDYAMH,GSSWNSGSIGYADSVK,VGRGGGYFDS,1.7 mM,1 of 3
PFTFDDYAMH,GFSWVSGSIGYADSVK,VGRGGGYFDY,nd,0 of 3
HFTFDDYAMH,GWSWNSGSIGYADSVK,VGRGGGYEDY,76 µM,3 of 3
GFTFDDYASH,GASENSGSIGYADSVK,VGRGGGYFDY,120 µM,1 of 3
GFTFDDYAMH,TYSWNSGSIGYADSVK,VGRGGYYFDY,nd,0 of 3
GFTFDDYAMH,QWSWNSGSIGEADSVK,VGRGGGYFDY,nd,0 of 3
GFTFDYYAMH,GPSWNSGSIGYADSVK,VGRGGGYDDY,nd,0 of 3
GFTFDDYAMH,GLSWNSFSIGYADSVK,VGRGGGYFDY,100 µM,3 of 3
GFTFDDYAMH,GWSWNSGSIGYDTSVK,VGRGGGYFDY,430 µM,1 of 3
GFTFDDYAMH,FWSWNSGSIGYADSVN,VGRGGGYFDY,9.2 µM,1 of 3
GFTFDDYAMH,GFSWNSGSIGYAQSVK,VGRGGGYFDP,93 µM,2 of 3
GFTKDDYAMH,GVSWNSGSIGYADSVK,VGRFGGYFDY,13 µM,3 of 3
GFTFDDYAMH,GWSWNAGSIGYADSVK,VGRGGGYFDK,nd,0 of 3
GFTFDDDAMH,GWSWNSGSIGYADSVK,GGRGGGYFDY,nd,0 of 3
GFTFDQYAMH,GRSWNSGSIGYADSVM,VGRGGGYFDY,7.2 µM,2 of 3
GFTFDDYAMH,GNSWNSGSIGYADSVK,VKRAGGYFDY,nd,0 of 3
GFTHDDYAMH,GDSWNSGSIGYADSVK,VGRGGGYFDY,5.1 µM,2 of 3
GFTFDDYWMH,GLSWNSGSVGYADSVK,VGRGGGYFDY,60 µM,3 of 3
GFTFDDYAMH,GTSWNSGSIGYADSVK,VGRGYGYFDQ,460 µM,3 of 3
YFTFDDYAMH,GWSWNSGSIGYAGSVK,VGRGGGYFDY,nd,0 of 3
GFTFDDYAMH,GLSYNDGSIGYADSVK,VGRGGGYFDY,nd,0 of 3
GFTFDDQAMH,GRSWNSGSIGYADSVG,VGRGGGYFDY,83 µM,2 of 3
SFTFDDRAMH,GQSWNSGSIGYADSVK,VGRGGGYFDY,620 µM,1 of 3
GFTFDDYAMH,MNSWNSGSIGYADSVF,VGRGGGYFDY,nd,0 of 3
GFTFDDYAMH,GRSWNSLSIGYADSVK,VGRWGGYFDY,nd,0 of 3
GFTFDDYAMH,GASWNSGSIGYADSTK,VGRGGGYFDY,nd,0 of 3
GFTFDDYAMH,GKSWNSGSIGYADSVK,VGRGGGYFDY,43 µM,1 of 3
GFTVDDYAMH,GPSWNSGSIGYADSVK,VGRGGGYFDA,nd,0 of 3
GFTFDDYAMH,GNHWNSGSIGYADSVF,VGRGGGYFDY,98 µM,1 of 3
GFTFDDYIMH,GGSWNSGSIGYALSVK,VGRGGGYFDY,nd,0 of 3
GFTFDDYAME,GKSWLSGSIGYADSVK,VGRGGGYFDY,nd,0 of 3
GFTFDDYAMH,GSSWNSGSIGYADSVK,VGQGTGYFDY,20 µM,3 of 3
GFTLDDYAMH,MNSWNSGSIGYADSVK,VGRGGGYFDY,1.9 mM,3 of 3
GFTFDDYAMH,GGSWNSGSIGYTDSVK,TGRGGGYFDY,nd,0 of 3
GFTFDDYAMH,GMSQNSGSIGYADSVK,VGRGGGYFDY,4.1 µM,3 of 3
GFKFDDYAMH,GWSWNSGSIGYADSVK,VGRGGGLFDY,nd,0 of 3
GFTFDDYAMH,GGSWHSGSIGYAQSVK,VGRGGGYFDY,nd,0 of 3
GFTFDDDAMH,GGSWNSGSIGYADSVK,VGRGGGYFDS,nd,0 of 3
GFTFTDYAMH,GLSWNSGSIGYADSVK,VGRGGGYFDY,260 nM,3 of 3
GFTFDDYAMH,GHSCNSGSIGYADSVK,IGRGGGYFDY,120 µM,3 of 3
GWTFDDYAMH,GWSWSSGSIGYADSVK,VGRGGGYFDY,3.6 µM,1 of 3
GFTFDDYAMH,GSLWNSGSIGTADSVK,VGRGGGYFDY,nd,0 of 3
GPTFDDYAMH,GKSWNDGSIGYADSVK,VGRGGGYFDY,370 µM,1 of 3
GNIFDDYAMH,GCSWNSGSIGYADSVK,VGRGGGYFDY,nd,0 of 3
GFTFDRYAMH,GYSWNSGSIGYADSVK,VGRGGGYFAY,1.3 mM,2 of 3
GFTFDDYAMH,GFSWNSGSIGYADSVK,VGRGEGYFDY,4.7 µM,1 of 3
GFTYDDYAMH,GHSANSGSIGYADSVK,VGRGGGYFDY,nd,0 of 3
GFTFDDYTMH,SVSWNSGSIGYADSVK,VGRGGGYFDY,nd,0 of 3
YFTFDDYAMH,TPSWNSGSIGYADSVK,VGRGGGYFDY,120 µM,1 of 3
GFTFDDYAMH,GLEWNSGSIGYADSVK,VGWGGGYFDY,nd,0 of 3
GFTFDDYAMH,QGSWNFGSIGYADSVK,VGRGGGYFDY,57 µM,2 of 3
GFTFQDYAMH,GVSWNSGSTGYADSVK,VGRGGGYFDY,13 nM,3 of 3

The 6 strongest on average among those seen in every replicate, once more:

CDR-H1,CDR-H2,CDR-H3,Kd (apparent),detected
GFTFQDYAMH,GVSWNSGSTGYADSVK,VGRGGGYFDY,13 nM,3 of 3
GFTFTDYAMH,GLSWNSGSIGYADSVK,VGRGGGYFDY,260 nM,3 of 3
GFTFDDYAMH,GMSQNSGSIGYADSVK,VGRGGGYFDY,4.1 µM,3 of 3
GFTKDDYAMH,GVSWNSGSIGYADSVK,VGRFGGYFDY,13 µM,3 of 3
GFTFDDYAMH,GSSWNSGSIGYADSVK,VGQGTGYFDY,20 µM,3 of 3
GFTFDDYWMH,GLSWNSGSVGYADSVK,VGRGGGYFDY,60 µM,3 of 3

From the AlphaSeq antibody data of Engelhart et al. 2022 (doi:10.1038/s41597-022-01779-4), copy in the FLAb collection.